The assay deals with Histone deacetylase 2 (Homo sapiens, UniProt Q92769). Particulars: 1 uM.

Protein sequences, listed by entry. Tags and fused reporters are not part of them.
UniProt Q92769, whole entry: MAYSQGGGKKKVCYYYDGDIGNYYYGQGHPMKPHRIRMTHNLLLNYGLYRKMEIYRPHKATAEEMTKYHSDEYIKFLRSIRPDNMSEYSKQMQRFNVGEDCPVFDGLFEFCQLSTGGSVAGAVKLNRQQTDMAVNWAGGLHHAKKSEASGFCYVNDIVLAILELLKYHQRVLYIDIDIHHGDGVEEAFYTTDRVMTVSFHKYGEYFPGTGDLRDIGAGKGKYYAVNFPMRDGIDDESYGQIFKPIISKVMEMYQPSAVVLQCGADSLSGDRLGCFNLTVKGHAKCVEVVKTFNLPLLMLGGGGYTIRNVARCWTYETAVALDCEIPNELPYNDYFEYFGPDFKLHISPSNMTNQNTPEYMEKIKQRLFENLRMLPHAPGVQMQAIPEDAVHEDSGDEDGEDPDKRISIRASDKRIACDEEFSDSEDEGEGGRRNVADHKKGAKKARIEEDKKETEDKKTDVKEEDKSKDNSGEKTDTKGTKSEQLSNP

Calls of active or inactive are those of the source. The calls are words filed in the database; no cut-off is given here.

With `CCOC(=O)NCCCC(=O)NCCc1ccccc1`, the inhibition entry was “Active”.

Take `O=C(CCCC(=O)NCCc1ccccc1)NO`: the inhibition result was “Active”.
